Compounds with a hit are over-represented: about 0.43% of the library has one in this group of screens.
GIV-Gai inh: inhibitors of GIV GBA-motif binding to rat Galpha-i3. actives 0.42% (n = 210,000). Galpha-i3/FITC-GIV peptide fluorescence polarization, 90 min; active compounds read low; scaled: aluminum fluoride 0%, vehicle 100%. AID 1224905. percent of control (FP), % (no concentration beside the values). P08753;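 active means replicate mean at 85% of control or lower, very high polarization wells dropped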;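 further: wells of about 15 µL received 100 nL stock; the first replicate is given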
HCMV UL50-53 inh: inhibitors of HCMV UL50-UL53 nuclear egress complex interaction; HTRF UL50-UL53 interaction, normalized percent inhibition; inhibition, % (test concentration not listed); 190,000 compounds, 0.15% hits; in the data active means inhibition above about 27%, passing the limit was not always enough
* hit, by the source's call; x = not tested or not shown; ! = not confirmed by another sample.

SMILES	GIV-Gai inh	HCMV UL50-53 inh
CCc1ccccc1NC(=O)Cn1ncn2c(cc3ccccc32)c1=O	107.5	-10.4
COC(=O)c1cccc(N2C(=O)/C(=C/c3ccc(-c4cc(Cl)ccc4Cl)o3)C=C2c2ccccc2)c1	105.3	x
O/N=C1/CCCc2nn(-c3ccccc3)nc21	x	55.7*
O/N=C1\CCCc2c1nc(-c1ccccc1Cl)n2O	x	-3.1
CCN(CC)c1ccc(/C=C/c2cc(=O)cc(C)o2)cc1	-61.2*	-59.2
CCN(CC)c1ccc(/C=C2/SC(=O)NC2=O)cc1	182.4	-43.6
Cc1ccc(Nc2c(-c3ccccc3O)nc3cc(C)ccn23)cc1	102.6	-3.4
NC(=O)C[n+]1ccn2c(NC3CCCCC3)c(-c3ccccc3O)nc2c1	-74.8*	x
COc1ccc(NS(=O)(=O)c2cc(N3C(=O)CCS3(=O)=O)ccc2OC)c(OC)c1	100.6	-23.0
O=C(Nc1ccccc1)OC1C2CCCC1C(N1CCCCC1)CC2 (configuration not stated)	x	-2.9
O=S(=O)(Cc1nc(-c2ccc(Cl)cc2)cs1)c1cccs1	101.4	-16.0
O=C1/C(=C/c2ccc(O)cc2)SC(=S)N1CC1CCCO1 (configuration not stated)	-24.0*	x
O=C1/C(=C/C2CC=CCC2)SC(=S)N1CC1CCCO1 (configuration not stated)	100.1	x
CCOC(=O)C1CCN(C(=O)C(C(=O)c2ccccc2)n2ccccc2=O)CC1 (configuration not stated)	x	3.5
CCN(CC)S(=O)(=O)c1cc(-c2n[nH]c(=O)c3c2CCCC3)ccc1C	97.0	-15.6
CCc1ccc(N2C(=O)NC(=O)/C(=C\c3ccc(OC(C)C(=O)O)cc3)C2=O)cc1 (configuration not stated)	99.8	78.5*
CCOc1ccc(N2C(=O)NC(=O)/C(=C\c3ccc(Br)cc3)C2=O)cc1	109.7	1.2
Cc1cc(C)cc(N2C(=O)NC(=O)/C(=C\c3ccc(OC(C)C(=O)O)cc3)C2=O)c1 (configuration not stated)	113.3	88.3*
CC(Oc1ccc(/C=C2\C(=O)NC(=O)N(c3ccc4c(c3)OCO4)C2=O)cc1)C(=O)O (configuration not stated)	104.3	-0.9
O=C(CSc1nnc(-c2cc3ccccc3n2-c2ccccc2)o1)Nc1nccs1	102.0	-13.4
O=c1oc2c(CN3CCCC3)c(O)ccc2cc1-c1ccccc1	115.3	x
CCN(CC)Cc1c(O)ccc2cc(-c3nc4ccccc4s3)c(=O)oc12	-18.2*	x
CC1CCCN(Cc2c(O)ccc3cc(-c4nc5ccccc5s4)c(=O)oc23)C1 (configuration not stated)	-31.8*	-81.5
CCOc1cccc2cc(-c3nc4ccccc4s3)c(=O)oc12	143.0	x
C=C(C)C(=O)Oc1cccc(N2C(=O)C3C4C=CC(C4)C3C2=O)c1 (configuration not stated)	x	26.2

Part of the list above, with each value named:
SMILES: CCOc1cccc2cc(-c3nc4ccccc4s3)c(=O)oc12
  GIV-Gai inh = 143.0	HCMV UL50-53 inh = x
SMILES: O=C(CSc1nnc(-c2cc3ccccc3n2-c2ccccc2)o1)Nc1nccs1
  GIV-Gai inh = 102.0	HCMV UL50-53 inh = -13.4
SMILES: O=C1/C(=C/C2CC=CCC2)SC(=S)N1CC1CCCO1 (configuration not stated)
  GIV-Gai inh = 100.1	HCMV UL50-53 inh = x
SMILES: Cc1ccc(Nc2c(-c3ccccc3O)nc3cc(C)ccn23)cc1
  GIV-Gai inh = 102.6	HCMV UL50-53 inh = -3.4

Next records follow:
SMILES	GIV-Gai inh	HCMV UL50-53 inh
C=CCN1/C(=C\C=C\c2n(CC=C)c3cc(Cl)c(Cl)cc3[n+]2CCCCCCCC)N(CCCCCCCC)c2cc(Cl)c(Cl)cc21	-62.4*	x
CCCCCCCCN1/C(=C/C=C/c2n(CCCCCCCC)c3cc(Cl)c(Cl)cc3[n+]2CCCCC)N(CCCCC)c2cc(Cl)c(Cl)cc21	144.5	x
COc1ccccc1N1CCN(c2ncc(S(=O)(=O)c3ccc(C(C)C)cc3)c(N)n2)CC1	97.6	x
CCN(CC)c1ccc(/C=N/NC=O)c(O)c1	x	-34.6
CCN(CC)c1ccc(C=C2C(=O)c3ccccc3C2=O)c(O)c1	-64.4*	-57.5
CN1C(=O)/C(=C/c2cn(CC(=O)NCc3ccco3)c3ccccc23)C(=O)NC1=S	105.4	4.8
O=C(Cn1cc(/C=C2\C(=O)NC(=O)N(Cc3ccccc3)C2=O)c2ccccc21)NCc1ccco1	-34.6*	-0.1
C=CCN1C(=O)NC(=O)/C(=C/c2ccc(OCc3ccccc3F)c(OCC)c2)C1=O	104.0	-12.7
C=CCN1C(=O)NC(=O)/C(=C/c2ccc(OCc3ccc(Cl)cc3)c(OC)c2)C1=O	109.4	-27.2
C=CCN1C(=O)NC(=O)/C(=C/c2cccc(OCc3ccccc3Cl)c2)C1=O	113.9	72.9*
CN1C(=O)/C(=C/c2cn(Cc3ccccc3)c3ccccc23)c2ccccc21	104.2	x
C=CCN1C(=O)NC(=O)/C(=C/c2ccccc2OCc2ccc(Cl)cc2)C1=O	116.7	82.3*
C=CCN1C(=O)NC(=O)/C(=C\c2cn(Cc3ccccc3)c3ccccc23)C1=O	21.4*	x
CC(C)N(C(=O)Cn1c(=N)sc2ccccc21)c1ccccc1	x	-17.6
Cc1c(C(=O)NCCC(C)C)sc2ncnc(N3CCOCC3)c12	100.0	x
COc1ccc(C(=O)COC(=O)C(Cc2ccccc2)N2C(=O)C3C4C=CC(C4)C3C2=O)cc1 (configuration not stated)	112.5	0.1
CC(C)NCC(O)COc1ccccc1 (configuration not stated)	104.4	24.9
CC(COc1ccccc1)N(CCCl)Cc1ccccc1 (configuration not stated)	99.2	88.8*!

Screening data as filed in PubChem BioAssay.
